Data as given in patent US20110245173A1, “Long-Acting GLP-1 Derivatives, and Methods of Treating Cardiac Dysfunction” (priority 2008, published 2011).
Read-outs that look alike come from different tables or passages of the source. Each block holds one compound with its values, some of them ahead of it.

Assay: Pharmacokinetics in plasma after single bolus intravenous administration to rats
Type: in vivo, Sprague Dawley rats
Conditions: for half-life / clearance / Cmax / Vd / AUC(0-t) / AUC(0-inf) / Tmax: Time to Cmax: rat, iv; for Vd: read-out: Vdss: Volume of distribution at steady state
Description: GLP-1 (9-36) analogues containing C-terminal extensions (FIG. 2) were tested in 9 week old male Sprague Dawley rats to evaluate biological half-life as well as other pharmacokinetic properties of the analogues. Rats used in the study were acclimated to laboratory conditions for approximately 1 week prior to testing. Polypeptide analogues were prepared as solutions for intravenous administration (bolus injection in the jugular vein) at concentrations of 0.15 mg/mL and 1.5 mg/mL in appropriate buffers. The compounds were then injected while the animals were still under anesthesia. Blood samples were taken form each animal at no more than 5 occasions. Following dose administration, blood samples (0.3 to 0.4 mL) were obtained by jugular venipuncture (lithium heparin was used as an anticoagulant) at selected time points (0, 2.5, 5, 10 and 15 minutes or 30, 45, 60, 120 and 240 minutes). The samples were analyzed for parent drug by LC-MS/MS. Numerical data was subjected to calculation of group mean values, standard deviations and coefficients of variation (expressed as a percent), where appropriate. The pharmacokinetic analysis (non-compartmental) of plasma concentration was performed using the PhAST software program (Version 2.3-004, Pheonix International Life Sciences Inc.). The highest experimental concentration was considered the peak concentration (Cmax; observed value). Whenever possible, the observed terminal phase rate constant (Kel) was calculated from the terminal 3 or more points (non-zero and non-Cmax points) of the log-linear regression. The number of points included in the regression analysis was such as to optimize r^2 value calculated for the regression. Terminal phase half-life (t1/2) was determined by dividing 0.693 by Kel. The area under the plasma concentration of each compound versus time-curve from time zero to the last quantifiable concentration (AUC0-t) was calculated by the linear trapezoidal method (Bailer, A. J., (1988) J. Pharmacokin. Biopharm., 1, 303-309). AUC0-∞, the area under the plasma concentration versus time curve from time zero to infinity, was calculated as the sum of AUC0-t plus the ratio of the last plasma concentration to Kel. Values below the limit of quantification were assigned a value of zero for pharmacokinetic analysis.

[1] = male, Sprague Dawley, in vivo, 0.15 mg/kg
[2] = male, Sprague Dawley, in vivo, 1.5 mg/kg

Kel: Elimination rate constant (0.15 mg/kg single i.v. bolus, male Sprague Dawley rats, plasma): 0.139 min⁻¹
Kel: Elimination rate constant (1.5 mg/kg single i.v. bolus, male Sprague Dawley rats, plasma): 0.071 min⁻¹
half-life (in vivo, 0.15 mg/kg, 0.15 mg/kg single i.v. bolus, male Sprague Dawley rats, plasma, read-out: T1/2: Terminal phase half-life): 4.99 min
half-life (in vivo, 1.5 mg/kg, 1.5 mg/kg single i.v. bolus, male Sprague Dawley rats, plasma, read-out: T1/2: Terminal phase half-life): 9.72 min
half-life (in vivo, 1.5 mg/kg, range over the 0.15 and 1.5 mg/kg i.v. groups, rats, summary of Table 1, read-out: half-life): 4.99 to 9.72 min
clearance (in vivo, 0.15 mg/kg single i.v. bolus, male Sprague Dawley rats, plasma, read-out: CL: Clearance): 14.4 mL/min/kg
Cmax (in vivo, 0.15 mg/kg single i.v. bolus, male Sprague Dawley rats, plasma, read-out: Cmax: The highest observable concentration): 2100 ng/mL
Vd (in vivo, 0.15 mg/kg single i.v. bolus, male Sprague Dawley rats, plasma): 0.0882 L/kg
clearance (in vivo, 1.5 mg/kg single i.v. bolus, male Sprague Dawley rats, plasma, read-out: CL: Clearance): 13.6 mL/min/kg
Cmax (in vivo, 1.5 mg/kg single i.v. bolus, male Sprague Dawley rats, plasma, read-out: Cmax: The highest observable concentration): 19300 ng/mL
Vd (in vivo, 1.5 mg/kg single i.v. bolus, male Sprague Dawley rats, plasma): 0.0847 L/kg
AUC(0-t) (0.15 mg/kg single i.v. bolus, male Sprague Dawley rats, plasma, read-out: AUC0-t: area under the plasma concentration versus time-curve from time zero to last time point (converted)): 171 ng·h/mL
AUC(0-inf) (0.15 mg/kg single i.v. bolus, male Sprague Dawley rats, plasma, read-out: AUC0-∞: area under the plasma concentration versus time curve from time zero to infinity (converted)): 173 ng·h/mL
AUC(0-t) (1.5 mg/kg single i.v. bolus, male Sprague Dawley rats, plasma, read-out: AUC0-t: area under the plasma concentration versus time-curve from time zero to last time point (converted)): 1840 ng·h/mL
AUC(0-inf) (1.5 mg/kg single i.v. bolus, male Sprague Dawley rats, plasma, read-out: AUC0-∞: area under the plasma concentration versus time curve from time zero to infinity (converted)): 1840 ng·h/mL
SMILES: CC[C@H](C)[C@H](NC(=O)[C@H](Cc1ccccc1)NC(=O)[C@H](CCC(=O)O)NC(=O)[C@H](CCCCN)NC(=O)[C@H](C)NC(=O)[C@H](C)NC(=O)[C@H](CCC(N)=O)NC(=O)CNC(=O)[C@H](CCC(=O)O)NC(=O)[C@H](CC(C)C)NC(=O)[C@H](Cc1ccc(O)cc1)NC(=O)[C@H](CO)NC(=O)[C@H](CO)NC(=O)[C@@H](NC(=O)[C@H](CC(=O)O)NC(=O)[C@H](CO)NC(=O)[C@@H](NC(=O)[C@H](Cc1ccccc1)NC(=O)[C@@H](NC(=O)CNC(=O)[C@@H](N)CCC(=O)O)[C@@H](C)O)[C@@H](C)O)C(C)C)C(=O)N[C@@H](C)C(=O)N[C@@H](Cc1c[nH]c2ccccc12)C(=O)N[C@@H](CC(C)C)C(=O)N[C@H](C(=O)N[C@@H](CCCCN)C(=O)NCC(=O)N[C@@H](CCCNC(=N)N)C(=O)N1CCC[C@H]1C(=O)N[C@@H](CO)C(=O)N[C@@H](CO)C(N)=O)C(C)C [DGS72]

SMILES: CC[C@H](C)[C@H](NC(=O)[C@H](Cc1ccccc1)NC(=O)[C@H](CCC(=O)O)NC(=O)[C@H](CCCCN)NC(=O)[C@H](C)NC(=O)[C@H](C)NC(=O)[C@H](CCC(N)=O)NC(=O)CNC(=O)[C@H](CCC(=O)O)NC(=O)[C@H](CC(C)C)NC(=O)[C@H](Cc1ccc(O)cc1)NC(=O)[C@H](CO)NC(=O)[C@H](CO)NC(=O)[C@@H](NC(=O)[C@H](CC(=O)O)NC(=O)[C@H](CO)NC(=O)[C@@H](NC(=O)[C@H](Cc1ccccc1)NC(=O)[C@@H](NC(=O)CNC(=O)[C@@H](N)CCC(=O)O)[C@@H](C)O)[C@@H](C)O)C(C)C)C(=O)N[C@@H](C)C(=O)N[C@@H](Cc1c[nH]c2ccccc12)C(=O)N[C@@H](CC(C)C)C(=O)N[C@H](C(=O)N[C@@H](CCCCN)C(=O)NCC(=O)N[C@@H](CCCNC(=N)N)C(=O)N1CCC[C@H]1C(=O)N[C@@H](CO)C(=O)N[C@@H](CO)C(=O)NCC(=O)N[C@@H](C)C(=O)N1CCC[C@H]1C(=O)N1CCC[C@H]1C(=O)N1CCC[C@H]1C(=O)N[C@@H](CO)C(N)=O)C(C)C [DGS71]
AUC(0-inf) [1]: 320 ng·h/mL
AUC(0-t) [1]: 307 ng·h/mL
AUC(0-inf) [2]: 2830 ng·h/mL
AUC(0-t) [2]: 2810 ng·h/mL
Cmax (in vivo, 0.15 mg/kg): 1920 ng/mL
Tmax: Time to Cmax (in vivo, 0.15 mg/kg): 2.50 min
clearance (in vivo, 0.15 mg/kg): 7.81 mL/min/kg
half-life (in vivo, 0.15 mg/kg, T1/2: Terminal phase half-life): 13.6 min
Cmax (in vivo, 1.5 mg/kg): 15300 ng/mL
Tmax: Time to Cmax (in vivo, 1.5 mg/kg): 2.50 min
clearance (in vivo, 1.5 mg/kg): 8.84 mL/min/kg
half-life (in vivo, 1.5 mg/kg, T1/2: Terminal phase half-life): 18.3 min
half-life (in vivo, 1.5 mg/kg, half-life): 13.6 to 18.3 min
